## Measured affinities in a library of Ab-14 light chain variants

Target peptide (SARS-CoV-2 spike, HR2 region): PDVDLGDISGINAS

Each scFv is VH, three GGGGS repeats, VL, as in the parent Ab-14, and differs from it in the CDRs of the light chain only.
VH: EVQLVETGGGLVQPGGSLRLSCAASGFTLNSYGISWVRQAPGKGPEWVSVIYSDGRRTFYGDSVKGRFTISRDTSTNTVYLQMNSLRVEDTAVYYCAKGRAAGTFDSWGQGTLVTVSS
VL: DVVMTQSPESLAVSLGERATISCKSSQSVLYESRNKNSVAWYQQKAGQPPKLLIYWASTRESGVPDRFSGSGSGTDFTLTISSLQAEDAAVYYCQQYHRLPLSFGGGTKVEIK

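Phage display of a naive human antibody library on the peptide gave the parent. Variants in AAYL50 differ from the parent at up to three CDR positions; double and triple changes were sampled at random. Affinity was read by AlphaSeq, a pooled yeast mating assay with surface-displayed partners. Binding brings cells together so that they mate, and sequencing counts the barcode pairs among the diploids. A regression on co-assayed BCL2-family reference pairs converts the normalised counts of each replicate to an apparent Kd. There are three technical replicates.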

Positions count from residue 1 of the parent VL; W56E puts E in place of W.
Numbers give log10(Kd / nM), so 0 is 1 nM and 3 is 1 µM. Smaller is tighter.
Replicates are averaged; those with no signal do not enter the mean.
An entry "nd" has no value in the source: the pair was not observed among the diploids in that replicate. This suggests poor binding but is not conclusive.
Parent in this assay: reference entry 0.65, copy in this library 1.68.

| changes | log10 Kd (nM) by replicate | mean, log10 nM | control signals |
|---|---|---|---|
| W56E L100T P101E | 0.61 0.82 0.59 | 0.67 | 2/9 (3.94) |
| A57I S103H | 3.57 4.45 nd | 4.01 | 1/9 (3.82) |
| Q95V Q96M L100P | nd nd 4.25 | 4.25 | 3/9 (3.46) |
| S26I K36E R60K | 2.82 2.42 2.51 | 2.59 | 1/9 (4.24) |
| Q27Y Q96E R99N | nd nd nd | nd | 0/9 |
| S62H Q95H Y97W | nd nd nd | nd | 0/9 |
| L30A S62Y | 0.88 1.21 1.02 | 1.04 | 1/9 (2.84) |
| Y31I N37E E61H | nd nd nd | nd | 0/9 |
| S26A S33T R60Q | nd nd 4.27 | 4.27 | 2/9 (4.44) |
| S26V Y31S Q95I | 2.54 nd nd | 2.54 | 0/9 |
| V39G S58K H98I | nd nd nd | nd | 0/9 |
| L30V Q96C R99G | nd nd nd | nd | 0/9 |
| Q95A P101T S103K | nd nd nd | nd | 0/9 |
| S62L H98M | 1.56 1.19 1.89 | 1.55 | 0/9 |
| Y31F E61R R99T | 2.57 2.83 2.27 | 2.56 | 0/9 |
| A40N E61H L102T | 4.72 nd nd | 4.72 | 0/9 |
| S58A R60K P101E | nd 3.19 5.81 | 4.50 | 2/9 (4.43) |
| Q27Y V39W R60E | 3.31 nd nd | 3.31 | 2/9 (3.65) |
| Q95S R99H L102N | 3.54 3.13 nd | 3.33 | 3/9 (4.69) |
| S38Q R60Q R99M | nd nd nd | nd | 1/9 (3.53) |
| Q27N R34M W56Q | -0.01 0.31 0.10 | 0.14 | 5/9 (5.18) |
| Y31R L102T | 2.34 1.62 1.99 | 1.98 | 1/9 (3.90) |
| L30C S38D V39Q | nd nd nd | nd | 0/9 |
| E32L A57T S58Q | 3.71 2.88 3.44 | 3.34 | 1/9 (4.07) |
| Q27N S33T R34I | 1.00 1.43 1.15 | 1.19 | 1/9 (4.54) |
| K24P T59F L100R | 3.72 nd nd | 3.72 | 1/9 (3.52) |
| R34I A57I R60C | nd 5.60 4.01 | 4.80 | 4/9 (4.01) |
| N35C K36P H98W | nd 3.83 nd | 3.83 | 4/9 (3.95) |
| E32T N35V Y97W | nd nd nd | nd | 3/9 (3.78) |
| S33P S38N H98S | 1.27 1.30 0.91 | 1.16 | 0/9 |
| V29Q L100Y P101C | nd nd nd | nd | 5/9 (4.41) |
| S26E K36H L102T | 3.53 4.53 nd | 4.03 | 6/9 (4.38) |

Three control strains display no target. For library AAYL50, 18% of the pairings with them gave a signal, with a median of 4.19 and one signal in twenty below 2.99, so weak values seen in few replicates may be background. Also given: how often the same scFv was detected with the empty control strains, with their mean in brackets.

From the AlphaSeq antibody data of Engelhart et al. 2022 (doi:10.1038/s41597-022-01779-4), copy in the FLAb collection.